Reference: ChEMBL document CHEMBL3232792, “Cyclic secondary sulfonamides: unusually good inhibitors of cancer-related carbonic anhydrase enzymes” (J Med Chem, 2014)

The chains behind the UniProt entries cited, without tags or fusion partners. Where a name states a change or a piece, a line headed by the entry shows the natural chain unless it says otherwise.
UniProt Q9ULX7: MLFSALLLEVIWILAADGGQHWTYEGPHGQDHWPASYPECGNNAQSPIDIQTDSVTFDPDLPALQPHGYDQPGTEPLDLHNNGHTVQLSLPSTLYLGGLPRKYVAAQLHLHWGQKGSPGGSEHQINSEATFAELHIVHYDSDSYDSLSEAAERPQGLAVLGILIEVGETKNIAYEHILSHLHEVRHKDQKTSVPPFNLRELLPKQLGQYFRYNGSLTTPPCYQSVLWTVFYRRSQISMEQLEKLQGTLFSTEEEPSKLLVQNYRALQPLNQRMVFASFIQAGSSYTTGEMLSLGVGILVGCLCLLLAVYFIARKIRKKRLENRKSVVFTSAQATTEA

Biological target: Carbonic anhydrase 14 (Homo sapiens, UniProt Q9ULX7)

Ki: 773 nM
SMILES: O=C1NS(=O)(=O)c2ccccc21 [SACCHARIN]
